Here are results for three molecules from patent US7732437B2, “Use of anti-histaminics for acute reduction of elevated intracranial pressure” (Janssen Pharmaceutica, NV., priority 2001, dated 2010).

By UniProt entry, the sequences of proteins in these tests, tags left out.
UniProt P35367, whole entry: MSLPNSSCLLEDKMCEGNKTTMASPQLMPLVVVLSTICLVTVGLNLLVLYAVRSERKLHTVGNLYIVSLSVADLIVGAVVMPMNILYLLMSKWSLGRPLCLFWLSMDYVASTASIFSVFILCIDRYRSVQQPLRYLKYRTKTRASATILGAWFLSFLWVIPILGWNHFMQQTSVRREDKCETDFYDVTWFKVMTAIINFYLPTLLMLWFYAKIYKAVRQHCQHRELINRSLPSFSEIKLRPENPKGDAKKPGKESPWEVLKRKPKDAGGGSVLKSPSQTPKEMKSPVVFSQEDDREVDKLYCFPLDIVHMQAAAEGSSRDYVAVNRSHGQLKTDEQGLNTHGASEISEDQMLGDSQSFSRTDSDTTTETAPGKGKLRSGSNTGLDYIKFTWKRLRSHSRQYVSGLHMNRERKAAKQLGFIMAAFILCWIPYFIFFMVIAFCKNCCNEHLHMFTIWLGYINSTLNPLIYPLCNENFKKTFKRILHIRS

Assay [1] concerns the target human histamine H1-receptor (Homo sapiens, UniProt P35367). The assay is described as follows: Radioligand binding, histamine H1-receptor, competitive inhibition of [3H]Pyrilamine. As to conditions: CHO-cells transfected with the human histamine H1-receptor.
The subject of assay [2] is Sprague-Dawley rats with closed head injury. The assay is described as follows: Closed Head Injury (CHI) model, severe head injury. The settings on record: bolus of 1 mg/kg in 1 min, then infusion of 0.5 mg/kg/min for 44 min. Type of assay: in vivo, rat.

As for `Cc1nc2ccccn2c(=O)c1CCN1CCC(C2(C)c3ccccc3CCn3c2nc2ccccc23)CC1` (stereo not drawn), the “H1-antagonist activity (pIC50)” value in assay [1] (tested form: hydrate (1:1)) was found to be 6.7.

For the molecule `Cc1nc2n(C)c3ccccc3n2c(=O)c1CCN1CCC(C2c3ccccc3CCn3c2nc2ccccc23)CC1Cc1ccccc1` (single isomer, unassigned) [Compound 9], in assay [2], the “Decision (sequential statistical evaluation)” value was “active” and the “Delta %: average change of the relative ICP from baseline over the treatment period” value is listed as −12.4%.

As to `Cc1nc2n(C)c3ccccc3n2c(=O)c1CCN1CCC(C2c3ccccc3CCn3c2nc2ccccc23)CC1Cc1ccccc1` (single isomer, unassigned) [Compound 45], in assay [2], the “Decision (sequential statistical evaluation)” value was “active” and the “Delta %: average change of the relative ICP from baseline over the treatment period” value is recorded as −13.1%. Also, the “H1-antagonist activity (pIC50)” value in assay [1] is 6.5.
